{"source": "patent EP2027772A1", "about": "“Skin-friendly insect repellent” (Beiersdorf AG, priority 2007, dated 2009)", "test": "Octanol/water partition coefficient (log P), shake-flask with UV spectroscopy; alternatively calculated by Hansch and Leo", "conditions": "n-Octanol/Wasser"}
{"substance": "1,2,3, Propantriol", "values": [{"measurement": "Log P-Wert", "value": -2.3}]}
